Laboratory results as given in patent US20050155087A1, “Method of screening compounds” (priority 2001, published 2005).

System: zebrafish (wild-type and SQW mutant strains)
Assay: carcinogenesis assay

## N-methyl-N-nitro-N-nitrosoouanidine
MNNG 0.5, 1.0 and 2.0 ppm, DMBA 2.5, 5.0 and 10.0 ppm
  fish that developed tumors: 7.8%
wild-type fish
  tumor types: more mesenchymal and testicular tumors
